Source: patent US20020016370A1, “Exo-R-mecamylamine formulation and use in treatment” (priority 1998, published 2002)

By UniProt entry, the sequences of proteins in these tests, tags left out. Residues count along the entry.
UniProt P30926, 22-498: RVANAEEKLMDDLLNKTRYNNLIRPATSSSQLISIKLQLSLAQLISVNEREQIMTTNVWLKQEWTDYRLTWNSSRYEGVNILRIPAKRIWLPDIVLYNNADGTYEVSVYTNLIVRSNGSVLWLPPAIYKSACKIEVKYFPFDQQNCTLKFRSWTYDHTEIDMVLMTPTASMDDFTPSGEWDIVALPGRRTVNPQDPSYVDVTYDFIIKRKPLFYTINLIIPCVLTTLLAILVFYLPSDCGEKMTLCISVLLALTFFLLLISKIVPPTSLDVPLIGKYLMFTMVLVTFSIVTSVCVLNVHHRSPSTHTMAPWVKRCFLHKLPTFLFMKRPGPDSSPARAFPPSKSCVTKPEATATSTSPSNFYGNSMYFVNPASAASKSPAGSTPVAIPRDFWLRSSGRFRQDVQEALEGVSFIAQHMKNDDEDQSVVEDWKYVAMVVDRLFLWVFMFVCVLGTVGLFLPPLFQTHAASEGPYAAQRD
UniProt P32297, 32-505: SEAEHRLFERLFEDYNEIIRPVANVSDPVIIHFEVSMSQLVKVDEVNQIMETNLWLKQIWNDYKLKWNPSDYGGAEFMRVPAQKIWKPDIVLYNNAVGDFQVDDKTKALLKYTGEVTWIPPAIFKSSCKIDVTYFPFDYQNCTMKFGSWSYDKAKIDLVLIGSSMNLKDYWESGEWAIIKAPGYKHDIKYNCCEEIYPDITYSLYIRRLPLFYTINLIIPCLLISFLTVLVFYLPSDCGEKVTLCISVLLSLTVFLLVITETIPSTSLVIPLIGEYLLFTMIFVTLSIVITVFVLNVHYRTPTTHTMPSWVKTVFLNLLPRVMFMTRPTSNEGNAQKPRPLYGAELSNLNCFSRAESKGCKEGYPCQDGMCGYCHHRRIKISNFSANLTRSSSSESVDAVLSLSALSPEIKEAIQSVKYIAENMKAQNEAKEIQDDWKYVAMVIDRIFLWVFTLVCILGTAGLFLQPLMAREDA

Molecular target: T1, human α3β4 receptors (Homo sapiens, UniProt P30926+P32297)
T1 construct: expressed in transfected cells; host or cells: Xenopus laevis oocytes injected with cRNA
Assay: Two-electrode voltage clamp, receptors expressed in Xenopus oocytes
Format: cell-based

## CN[C@]1(C)[C@H]2CC[C@H](C2)C1(C)C [exo-R-mecamylamine]
  potency of inhibition, comparing the IC50 values across receptors: most potent
